{"source": "patent US10011657B2", "about": "“Anti-CS1 antibodies and antibody drug conjugates” (AbbVie Biotherapeutics Inc., priority 2014, dated 2018)", "key": {"[1]": {"experiment": "Non-GLP dose range-finding study in cynomolgus monkeys", "assay_type": "in vivo", "conditions": "24 mg/kg, 30-minute IV infusion Q3W, 2 doses", "method": "In a non-GLP dose range-finding study, Hu34C3-MMAE E2 was administered to cynomolgus monkeys via 30-minute IV infusion at every 3 week (Q3W) dose interval for a total of 2 doses (Day 1 and Day 22), with necropsy on Day 29."}, "[2]": {"tested_on": "MOLP-8 xenografts", "experiment": "MOLP-8 xenograft in NSG mice", "assay_type": "in vivo", "conditions": "E2 10 mg/kg, E4 5 mg/kg, unconjugated Hu34C3 10 mg/kg", "method": "L-363, MM1.S and MOLP-8 xenografts were prepared and studies conducted as generally described in Example 12. NSG mice (NOD.Cg-Prkdcscid Il2rgtm1Wj1/SzJ) from The Jackson Laboratory (strain code 05557) were used. This strain lacks effector cells and eliminates the ADCC mechanism for all antibodies. Using this strain permits evaluation of Hu34C3-MMAE E2 and Hu34C3-MMAE E4 ADC activity independently of ADCC activity. […]. Dosing of test ADCs was normalized such that equal masses of the MMAE component were delivered, with 2-fold differences in the IgG component (i.e., Hu34C3-MMAE E2 was dosed at 10 mg/kg; Hu34C3-MMAE E4 was dosed at 5 mg/kg.) Results are shown in FIGS. 23A-23C."}, "[3]": {"tested_on": "rat CS1", "experiment": "Binding to rat CS1"}}, "data": [{"molecule": "Hu34C3 (antibody) heavy: EVQLVESGGGLVQPGGSLRLSCAASGFTFSDYYMAWVRQAPGKGLEWVASINYDGSSTYYVDSVKGRFTISRDNAKNSLYLQMNSLRAEDTAVYYCARDRGYYFDYWGQGTTVTVSSASTKGPSVFPLAPSSKSTSGGTAALGCLVKDYFPEPVTVSWNSGALTSGVHTFPAVLQSSGLYSLSSVVTVPSSSLGTQTYICNVNHKPSNTKVDKKV[human IgG1 Fc not written out] light: DVVMTQTPLSLSVTPGQPASISCRSSQSLVHSNGNTYLHWYLQKPGQSPQLLIYKVSNRFSGVPDRFSGSGSGTDFTLKISRVEAEDVGVYFCSQSTHVPPFTFGGGTKVEIKRTVAAPSVFIFPPSDEQLKSGTASVVCLLNNFYPREAKVQWKVDNALQSGNSQESVTEQDSKDSTYSLSSTLTLSKADYEKHKVYACEVTHQGLSSPVTKSFNRGEC", "values": [{"measurement": "Summary Observations", "setting": "[1]", "value": "No remarkable changes"}, {"measurement": "Anti tumor activity (tumor volume)", "setting": "[2]", "value": "no activity"}, {"measurement": "Binding to rat CS1", "setting": "[3]", "value": "does not bind to rat CS1"}]}]}
